Legend:
[1] = 25 mg in 0.5% tetradecyl-beta-D-maltoside, oral and rectal, vs 25 mg oral tablets
[2] = formulations specifically optimized for oral delivery; cited from earlier work

Row | Molecule | Cmax [1] | oral bioavailability [2]
1 | CNS(=O)(=O)Cc1ccc2[nH]cc(CCN(C)C)c2c1 [sumatriptan] | increases Cmax | –
2 | Calcitonin: calcitonin [reference compound] | – | 0.5-1.4%
3 | insulin: insulin | – | 3%
